Test [1] concerns the target MRTF-A(67–199) S98D (mouse). As to the kind of experiment: SEC; Superdex 200 in 20 mM Tris (pH 8), 100 mM NaCl, 3 mM MgCl2, 0.2 mM EGTA, 0.3 mM TCEP, 5% (v/v) glycerol, calibrated with globular proteins of known molecular weight; apparent stoichiometry. On the technique in general: SEC sorts molecules by how far they enter the pores of the column.
A further test has as its target G-actin (UniProt P68135). In words: FP; LatB-actin.

Regarding “G-actin (from UniProt P68135 1-377) (natural protein)”, in test [1], the reduction of the stoichiometry of G-actin binding against wild-type MRTF-A(67–199) was determined as 1. Broadly, the Kd is the concentration at which binding is half-saturated. A high value points to lower affinity. Consider RPEL1 (62-104) S98A, for which the Kd in the test with G-actin was determined as 910 nM.

These data come from publication PMC4963197, “Phosphorylation acts positively and negatively to regulate MRTF-A subcellular localisation and activity” (eLife, 2016).
